Values of other authors in patent EP4778540A1, “ANTIBODY-DRUG CONJUGATE CONTAINING HETEROCYCLIC COMPOUND HAVING ACTIVITY OF INDUCING DECOMPOSITION OF G12D MUTANT KRAS PROTEIN” (Astellas Pharma Inc., priority 2023, dated 2025).

Sequences of proteins named here, by UniProt entry; tags and fusion partners are left off. Residues count along the entry.
UniProt P01116, 1-188 isoform 2 G12D: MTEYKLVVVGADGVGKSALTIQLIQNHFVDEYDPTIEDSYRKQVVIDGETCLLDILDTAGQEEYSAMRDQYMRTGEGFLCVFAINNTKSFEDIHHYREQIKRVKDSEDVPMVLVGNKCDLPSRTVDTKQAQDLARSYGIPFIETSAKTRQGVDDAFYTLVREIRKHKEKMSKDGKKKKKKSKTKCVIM

Target: mutant RAS G12D protein (Homo sapiens, UniProt P01116, G12D)
Settings: human G12D mutant KRAS-positive pancreatic cancer line AsPC-1; DC50 of D10 calculated from a molecular weight in terms of 4 hydrochloride; cited from earlier work

## CCn1nccc1-c1ccc([C@H](CO)NC(=O)[C@@H]2C[C@@H](O)CN2C(=O)[C@H](C(C)C)n2cc(-c3ccc(COc4c(-c5c(C)c(F)cc6[nH]ncc56)c(C5CC5)cc5c(N(C)[C@H]6CCNC6)nc(OC[C@H](C)OC)nc45)cc3)nn2)cc1
  DC50: 0.01 µM
